Measured affinities in a library of Ab-14 light chain variants

Reference: Li et al. 2023, doi:10.1038/s41467-023-39022-2. File: FLAb, binding data.

Antigen: PDVDLGDISGINAS, a 14-residue peptide of the SARS-CoV-2 spike HR2 region.

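The starting antibody came from a phage panning campaign against this peptide. These sequences belong to a second round, designed from the earlier measurements on random variants of the parent. Their group label is 14L_En_Gen (En: ensemble of fine-tuned language models; Gen: genetic algorithm). AlphaSeq pools MATa yeast showing the antibodies with MATalpha yeast showing the peptide. After mating in shaken culture at 30 °C for 16 h, diploids were selected and their barcode pairs sequenced. Scores were corrected for input abundance and mapped to Kd with protein pairs of known affinity run in the same pool. There are six technical replicates.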

Each scFv is VH, a (GGGGS)3 linker, VL, as in the parent Ab-14, and differs from it in the CDRs of the light chain only.
VH: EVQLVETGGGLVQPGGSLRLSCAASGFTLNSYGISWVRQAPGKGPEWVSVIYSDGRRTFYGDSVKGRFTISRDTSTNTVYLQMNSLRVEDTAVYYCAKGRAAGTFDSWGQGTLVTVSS
VL: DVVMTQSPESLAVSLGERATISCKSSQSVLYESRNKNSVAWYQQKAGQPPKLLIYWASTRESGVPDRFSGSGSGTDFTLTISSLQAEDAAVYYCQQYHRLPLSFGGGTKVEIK

Each variant is given by its three light chain CDRs, as the data file delimits them; those of the parent are KSSQSVLYESRNKNSVA, WASTRES, QQYHRLPLS. Affinities are written as log10 Kd with Kd in nM; a lower number is a better binder. An entry "ND" has no value in the source: the pair was not observed among the diploids in that replicate. This suggests poor binding but is not conclusive. The authors' rule: three or more of the six replicates give a measured affinity, fewer mean a poor binder. As a blank, each scFv also met three strains without target: over all light chain designs, 4% of these pairings were detected, typically at 2.64 and seldom below 1.59. For each scFv, signals with the empty controls are counted beside the result, with their mean in brackets. Values of this round are not directly comparable with the first-round values of the same sequences. The parent sequence was in this pool as ten entries: three were never detected, three once, and four in most replicates, with averages from 0.34 to 2.37.

| # | CDR-L1 | CDR-L2 | CDR-L3 | replicates, log10 nM | empty controls |
|---|---|---|---|---|---|
| 1 | MLSQMTGLGMKASNSVA | QANMRFD | QQYHRLPLI | 0.62 / 0.79 / 1.14 / 0.69 / 0.94 / 1.19 | 1 of 18 (2.23) |
| 2 | KVSEFMRGLMMRTDSIA | DNETRNS | QQYDRLPLS | 2.16 / 1.68 / 1.38 / 2.20 / 2.08 / 1.45 | 1 of 18 (2.91) |
| 3 | IVSQLMMWGLHAKNSIA | EAQTRLN | QQYERLPLF | ND / ND / ND / ND / ND / ND | 0 of 18 |
| 4 | KFSQMANSMSVSHSAVA | EMSTREN | QQYNRLPLA | 0.74 / 0.09 / 0.39 / 0.41 / 0.60 / 0.43 | 2 of 18 (1.11) |
| 5 | TITEFMDNLSRNRNNVA | DTSTLGS | QSYDRLPLS | 1.17 / 0.88 / 0.92 / 0.71 / 0.58 / 1.21 | 5 of 18 (3.11) |
| 6 | KVSEFMKGLMMRTDSIA | DNETRNS | QQYDRLPLS | 1.92 / 1.50 / 1.91 / 2.00 / 1.67 / 1.93 | 1 of 18 (2.20) |
| 7 | MVTQLMLWGWHAKNSIA | EAQTRVN | QQYDRLPLF | 1.48 / 1.34 / ND / ND / ND / 2.28 | 0 of 18 |
| 8 | HMSALTLQGMRQRNSVA | QMTTREN | QQYDHLPLA | 0.78 / 0.59 / -0.02 / 0.92 / 1.10 / 1.34 | 0 of 18 |
| 9 | HITYGMYVSGRNHSSIA | QAEERAK | QQYDRLPLI | 1.29 / 0.21 / 0.60 / 0.31 / 1.26 / -0.08 | 0 of 18 |
| 10 | KIGATLNQLMTKKNNVA | DLVMREN | QQYHRLPLS | 0.64 / 0.26 / 0.34 / 0.32 / 0.30 / 0.44 | 0 of 18 |
| 11 | KLSGLMASSKFAKDNVA | ENNTRED | QQYNRLPLS | ND / ND / ND / ND / ND / ND | 0 of 18 |
| 12 | MVTQMAMTGMKNKRSVA | NASTREN | QQYHRLPLI | -0.17 / -0.26 / -0.55 / -0.19 / -0.42 / -0.36 | 1 of 18 (1.89) |
| 13 | TIGVTLMQGIRNRSNVA | EVSERLN | QQYDRLPLA | 1.41 / 1.75 / 3.19 / 0.88 / 0.73 / 0.70 | 1 of 18 (2.63) |
| 14 | KIGATLNTLSHKQNNVA | DLVTREN | QQYYRLPLS | 0.57 / 0.82 / 0.46 / 0.39 / 0.22 / 0.29 | 2 of 18 (2.58) |
| 15 | HLGLATMLEEHVRNSVA | NNSTREE | QQYDRLPLS | 1.48 / ND / ND / ND / 3.62 / ND | 0 of 18 |
| 16 | HMSALTLQGMRMRNSVA | QMTTREN | QQYDRLPLT | ND / ND / ND / ND / ND / ND | 0 of 18 |
| 17 | MVYEATMMGGTARNSIA | NATMRPD | QQYHRLPLI | 1.19 / 1.13 / 1.11 / 1.51 / 1.51 / 1.51 | 1 of 18 (2.40) |
| 18 | HMSMITLMGSRNRNSVA | QMTTREN | QQYDRLPLA | 0.65 / 1.45 / 0.92 / 1.17 / 0.88 / 1.20 | 0 of 18 |
| 19 | MMSQVRGSGTRQRNNVA | QTSTREP | QQYDRLPLM | 0.72 / 1.09 / 1.28 / 0.87 / 1.07 / 0.82 | 0 of 18 |
| 20 | HMSMLTMMGMKQRNSVA | QMTMREN | QQYDRLPLA | 0.72 / 0.94 / 0.55 / 0.45 / 1.13 / 0.62 | 0 of 18 |
| 21 | MLSEFMHMLGAKKNSIA | DLVVRAN | QQYHRLPLS | 1.38 / 0.85 / 0.99 / 1.55 / 2.25 / 1.84 | 2 of 18 (1.55) |
| 22 | TISNVMNTLTRHGNNVA | DLEERED | QQYFRLPLS | 0.62 / 0.69 / 0.86 / 0.55 / 0.32 / 1.02 | 0 of 18 |
| 23 | TLYGLTNSMSKNKNNVA | EMSTREA | QQYDRLPLI | 1.65 / 1.46 / 1.58 / 1.41 / 2.18 / 1.41 | 0 of 18 |
| 24 | KISQMVKVGAVHNNSIA | EEVTRAK | QQYHRLPLA | ND / ND / 2.65 / ND / ND / ND | 0 of 18 |
| 25 | KVSEFMRGLMNRSDSIA | DNVTRNK | QQYDRLPLS | 2.59 / ND / 4.15 / ND / 2.46 / ND | 2 of 18 (2.45) |
| 26 | MVSQLMMWGLHAKNSIA | EAVMRYN | QQYDRLPLF | ND / 2.21 / ND / ND / ND / ND | 0 of 18 |
| 27 | QLSMITGHMSVSKNNVA | EMETRLN | QQYDRLPLS | 1.47 / 0.64 / 0.67 / 0.55 / 1.22 / 1.36 | 0 of 18 |
| 28 | HMSFLTLGGMRQKNSVA | QMTTREN | QQYDRLPLI | 0.98 / 1.17 / 0.53 / 0.65 / 0.90 / 1.23 | 2 of 18 (2.06) |
| 29 | KLSSITGHMSTVKNNVA | EMETREN | QQYNRLPLA | 1.22 / 1.48 / 0.70 / 0.86 / 0.99 / 1.36 | 1 of 18 (3.45) |
| 30 | KLTMITGLEKVQKNNVA | EMETREK | QQYNRLPLS | 0.15 / 0.03 / -0.23 / 0.33 / -0.14 / 0.17 | 0 of 18 |
| 31 | MLSEFMHMLGAKKNSIA | DLVLRAN | QQYHRLPLS | 0.22 / 0.05 / 0.59 / 0.62 / 0.46 / 0.50 | 0 of 18 |
| 32 | QLSMMTGHMSVSKNNVA | EMETRMN | QQYDRLPLS | 1.09 / 1.22 / 1.15 / 0.93 / 1.65 / 1.25 | 2 of 18 (2.77) |
| 33 | SISGFMKSLSAHTNSVA | DMTNREN | QQYDRLPLS | 0.36 / 0.65 / 0.69 / 0.21 / 0.69 / 0.82 | 1 of 18 (1.66) |
| 34 | MMSQVTGMELRQQNNVA | QTTTRES | QQYDRLPLI | 1.87 / 1.55 / 1.26 / 1.88 / 1.86 / 1.85 | 0 of 18 |
| 35 | MISQLHNMGTFAINSVA | QASIRNA | QQYDRLPLM | 0.58 / 0.62 / 0.54 / 0.40 / 0.68 / 0.67 | 0 of 18 |
| 36 | KLSMTTEMELKHRNSVA | ELVTRMS | QQYNRLPLS | 0.90 / 1.29 / 0.65 / 1.29 / 0.98 / 1.16 | 1 of 18 (3.20) |
| 37 | TLYGLSNSMSIKKDSVA | EMTTREE | QQYDRLPLV | 0.67 / 0.47 / 1.01 / 0.32 / 0.42 / 0.53 | 0 of 18 |
| 38 | MLSQMWGVGTKAKNSVA | QASTRFN | QQYHRLPLI | 1.27 / 1.60 / 1.31 / 1.20 / 1.44 / 1.09 | 1 of 18 (2.54) |
| 39 | TLYGLSNSSSINKNSVA | EMTTRED | QQYDRLPLV | ND / 1.71 / ND / ND / 2.07 / ND | 0 of 18 |
| 40 | KITATMRFEQKASNNIA | EVSMRTK | QQYYRLPLS | 2.16 / 3.27 / 1.78 / 1.24 / 1.40 / 2.06 | 0 of 18 |
| 41 | KISQMVKVGSTHSNSIA | EEVTRAK | QQYHRLPLA | 1.10 / 1.48 / 1.03 / 0.48 / 0.99 / 1.77 | 1 of 18 (2.00) |
| 42 | MMSQVTGLGQRQRNNVA | QTSTREP | QQYDRLPLV | 0.84 / 0.55 / 0.62 / 0.46 / 0.39 / 0.50 | 0 of 18 |
| 43 | KIGQTLNQLMHQKNNVA | DLVTREQ | QQYHRLPLS | 0.86 / 0.65 / 0.83 / 0.18 / 1.05 / 0.86 | 0 of 18 |